Results taken from PubChem BioAssay (EPA / NIEHS).
“And” between values parts separate entries of the source, which are not always exact repeats. Equal entries are not always repeated. The list shows a part of the results, in another mix than the full data. Inconclusive results are not listed. Some structures have more than one record in an assay (separate samples or runs), and their calls can disagree. The source made the active and inactive calls. How the source made its calls: active means hit-call score of the fitted dose curve at least 0.9, where 1 is the maximum; inconclusive means response in the unintended direction; inactive means score below 0.9.

By UniProt entry, the sequences of proteins in these tests, tags left out. Where a name states a change or a piece, a line headed by the entry shows the natural chain unless it says otherwise.
UniProt P34969, whole entry, looked up: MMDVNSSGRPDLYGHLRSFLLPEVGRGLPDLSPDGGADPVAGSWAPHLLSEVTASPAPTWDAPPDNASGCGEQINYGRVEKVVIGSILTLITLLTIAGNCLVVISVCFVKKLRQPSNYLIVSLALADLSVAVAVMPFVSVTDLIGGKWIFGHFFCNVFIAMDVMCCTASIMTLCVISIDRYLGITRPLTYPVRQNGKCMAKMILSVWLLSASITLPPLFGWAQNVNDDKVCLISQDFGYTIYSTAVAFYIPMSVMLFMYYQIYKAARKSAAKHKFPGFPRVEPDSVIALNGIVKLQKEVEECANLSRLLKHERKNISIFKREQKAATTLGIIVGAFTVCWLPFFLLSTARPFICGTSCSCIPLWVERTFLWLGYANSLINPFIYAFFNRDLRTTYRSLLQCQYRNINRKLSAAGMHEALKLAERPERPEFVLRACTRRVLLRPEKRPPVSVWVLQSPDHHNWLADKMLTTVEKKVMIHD
UniProt P21731: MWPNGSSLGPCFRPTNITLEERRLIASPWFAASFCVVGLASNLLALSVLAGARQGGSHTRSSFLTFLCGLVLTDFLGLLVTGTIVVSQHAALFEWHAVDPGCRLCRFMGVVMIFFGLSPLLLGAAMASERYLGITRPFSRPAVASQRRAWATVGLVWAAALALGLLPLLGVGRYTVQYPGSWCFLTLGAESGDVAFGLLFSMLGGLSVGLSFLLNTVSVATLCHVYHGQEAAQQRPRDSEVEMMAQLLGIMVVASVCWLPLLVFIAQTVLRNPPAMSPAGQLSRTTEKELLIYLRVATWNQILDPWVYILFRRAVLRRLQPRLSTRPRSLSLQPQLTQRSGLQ
UniProt P16177, whole entry, looked up: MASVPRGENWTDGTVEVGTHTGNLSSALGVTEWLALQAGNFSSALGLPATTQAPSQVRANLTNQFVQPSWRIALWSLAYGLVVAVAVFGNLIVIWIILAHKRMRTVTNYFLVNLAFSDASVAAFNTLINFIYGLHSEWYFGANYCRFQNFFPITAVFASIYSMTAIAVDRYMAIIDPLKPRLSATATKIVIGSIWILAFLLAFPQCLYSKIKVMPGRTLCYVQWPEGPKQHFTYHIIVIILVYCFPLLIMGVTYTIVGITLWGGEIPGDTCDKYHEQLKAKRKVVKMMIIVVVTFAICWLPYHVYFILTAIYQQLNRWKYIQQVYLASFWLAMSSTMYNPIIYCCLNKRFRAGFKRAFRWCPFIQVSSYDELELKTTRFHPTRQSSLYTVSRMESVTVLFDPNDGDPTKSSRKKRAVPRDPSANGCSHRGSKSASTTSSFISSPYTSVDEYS
UniProt P24530: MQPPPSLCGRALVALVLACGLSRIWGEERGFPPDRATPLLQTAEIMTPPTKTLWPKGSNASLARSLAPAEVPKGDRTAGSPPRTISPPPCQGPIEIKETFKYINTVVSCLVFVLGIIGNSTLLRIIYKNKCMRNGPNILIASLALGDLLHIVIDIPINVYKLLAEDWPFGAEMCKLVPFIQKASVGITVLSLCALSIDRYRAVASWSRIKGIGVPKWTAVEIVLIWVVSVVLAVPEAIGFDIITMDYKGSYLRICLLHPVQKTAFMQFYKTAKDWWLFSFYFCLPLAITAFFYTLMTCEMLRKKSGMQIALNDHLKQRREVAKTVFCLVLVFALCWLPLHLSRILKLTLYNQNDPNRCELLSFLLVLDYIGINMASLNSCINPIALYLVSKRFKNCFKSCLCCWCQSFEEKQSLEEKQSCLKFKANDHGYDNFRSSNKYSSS
UniProt Q15722: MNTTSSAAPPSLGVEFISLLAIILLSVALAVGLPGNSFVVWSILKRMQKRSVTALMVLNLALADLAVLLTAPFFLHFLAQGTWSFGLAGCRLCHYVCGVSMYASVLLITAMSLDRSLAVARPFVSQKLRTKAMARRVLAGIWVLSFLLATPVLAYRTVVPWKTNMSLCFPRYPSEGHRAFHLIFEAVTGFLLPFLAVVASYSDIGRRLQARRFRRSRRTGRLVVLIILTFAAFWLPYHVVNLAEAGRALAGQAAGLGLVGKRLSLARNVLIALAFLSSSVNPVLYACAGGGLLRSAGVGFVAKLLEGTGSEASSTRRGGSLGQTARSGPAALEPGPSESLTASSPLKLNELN
UniProt O08786, whole entry, looked up: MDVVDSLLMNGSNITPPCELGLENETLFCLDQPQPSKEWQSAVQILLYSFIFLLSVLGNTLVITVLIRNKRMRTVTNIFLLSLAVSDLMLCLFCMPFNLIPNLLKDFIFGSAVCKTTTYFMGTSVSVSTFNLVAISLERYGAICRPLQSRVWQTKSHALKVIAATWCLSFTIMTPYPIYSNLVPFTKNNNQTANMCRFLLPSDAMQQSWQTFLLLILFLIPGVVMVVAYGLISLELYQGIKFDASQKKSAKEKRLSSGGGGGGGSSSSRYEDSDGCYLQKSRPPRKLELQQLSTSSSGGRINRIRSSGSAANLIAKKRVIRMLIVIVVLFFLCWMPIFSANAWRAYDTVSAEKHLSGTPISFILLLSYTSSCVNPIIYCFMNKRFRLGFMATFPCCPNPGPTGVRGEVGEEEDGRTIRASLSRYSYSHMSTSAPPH
UniProt P43140: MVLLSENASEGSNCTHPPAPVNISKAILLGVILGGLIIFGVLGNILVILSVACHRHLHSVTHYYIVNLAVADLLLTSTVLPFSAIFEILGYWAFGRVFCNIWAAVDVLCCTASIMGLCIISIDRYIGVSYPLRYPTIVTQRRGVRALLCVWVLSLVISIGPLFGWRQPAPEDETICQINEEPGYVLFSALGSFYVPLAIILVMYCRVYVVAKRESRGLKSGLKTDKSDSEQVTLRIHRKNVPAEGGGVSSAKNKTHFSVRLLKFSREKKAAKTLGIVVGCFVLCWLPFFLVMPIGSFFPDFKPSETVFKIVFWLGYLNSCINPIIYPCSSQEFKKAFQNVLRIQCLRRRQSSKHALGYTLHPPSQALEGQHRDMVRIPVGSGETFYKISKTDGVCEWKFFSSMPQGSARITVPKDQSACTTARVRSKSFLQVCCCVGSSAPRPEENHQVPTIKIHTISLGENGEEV
UniProt P35372, whole entry, looked up: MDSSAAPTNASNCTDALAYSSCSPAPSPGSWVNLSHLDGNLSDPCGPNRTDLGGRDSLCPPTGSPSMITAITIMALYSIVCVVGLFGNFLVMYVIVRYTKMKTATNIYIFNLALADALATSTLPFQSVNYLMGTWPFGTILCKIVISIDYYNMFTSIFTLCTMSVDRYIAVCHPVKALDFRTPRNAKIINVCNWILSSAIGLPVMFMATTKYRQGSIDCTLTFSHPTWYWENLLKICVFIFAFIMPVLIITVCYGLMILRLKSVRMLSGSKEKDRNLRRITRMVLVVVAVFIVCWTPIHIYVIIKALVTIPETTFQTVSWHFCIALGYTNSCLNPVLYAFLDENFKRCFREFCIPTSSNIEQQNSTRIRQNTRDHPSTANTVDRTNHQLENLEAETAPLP
UniProt O70528: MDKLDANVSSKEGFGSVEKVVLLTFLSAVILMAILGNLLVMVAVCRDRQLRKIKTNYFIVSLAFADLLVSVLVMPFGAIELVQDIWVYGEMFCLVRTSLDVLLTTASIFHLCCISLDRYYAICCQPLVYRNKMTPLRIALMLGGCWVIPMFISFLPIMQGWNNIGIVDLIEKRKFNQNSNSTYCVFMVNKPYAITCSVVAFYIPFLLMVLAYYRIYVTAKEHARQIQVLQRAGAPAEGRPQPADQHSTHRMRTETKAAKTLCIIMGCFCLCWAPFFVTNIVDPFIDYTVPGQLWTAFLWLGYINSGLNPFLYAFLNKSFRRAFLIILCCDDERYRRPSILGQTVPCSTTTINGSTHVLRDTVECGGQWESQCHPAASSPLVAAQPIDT
UniProt P18090, whole entry, looked up: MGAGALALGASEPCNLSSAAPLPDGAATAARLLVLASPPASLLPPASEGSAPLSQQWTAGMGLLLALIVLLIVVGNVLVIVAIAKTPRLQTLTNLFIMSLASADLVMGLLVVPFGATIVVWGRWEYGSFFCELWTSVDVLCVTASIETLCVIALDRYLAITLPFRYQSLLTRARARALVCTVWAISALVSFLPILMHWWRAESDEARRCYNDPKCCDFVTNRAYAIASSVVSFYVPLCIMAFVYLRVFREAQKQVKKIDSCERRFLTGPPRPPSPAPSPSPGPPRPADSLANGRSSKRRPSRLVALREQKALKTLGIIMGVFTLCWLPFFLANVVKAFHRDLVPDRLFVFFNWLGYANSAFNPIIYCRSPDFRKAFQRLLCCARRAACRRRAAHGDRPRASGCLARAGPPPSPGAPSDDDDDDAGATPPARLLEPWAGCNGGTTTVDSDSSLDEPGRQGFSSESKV
UniProt P20789, whole entry, looked up: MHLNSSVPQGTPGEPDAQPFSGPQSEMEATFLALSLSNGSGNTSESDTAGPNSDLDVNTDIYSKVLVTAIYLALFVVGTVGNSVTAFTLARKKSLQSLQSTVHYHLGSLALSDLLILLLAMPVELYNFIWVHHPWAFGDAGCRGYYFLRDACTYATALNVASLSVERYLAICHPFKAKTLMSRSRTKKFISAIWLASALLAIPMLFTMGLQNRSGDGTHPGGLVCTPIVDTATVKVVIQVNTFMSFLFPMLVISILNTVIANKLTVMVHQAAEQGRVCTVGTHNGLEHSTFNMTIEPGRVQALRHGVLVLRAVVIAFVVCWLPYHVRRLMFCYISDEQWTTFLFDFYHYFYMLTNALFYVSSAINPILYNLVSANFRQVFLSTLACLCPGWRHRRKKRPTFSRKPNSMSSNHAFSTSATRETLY
UniProt Q15822: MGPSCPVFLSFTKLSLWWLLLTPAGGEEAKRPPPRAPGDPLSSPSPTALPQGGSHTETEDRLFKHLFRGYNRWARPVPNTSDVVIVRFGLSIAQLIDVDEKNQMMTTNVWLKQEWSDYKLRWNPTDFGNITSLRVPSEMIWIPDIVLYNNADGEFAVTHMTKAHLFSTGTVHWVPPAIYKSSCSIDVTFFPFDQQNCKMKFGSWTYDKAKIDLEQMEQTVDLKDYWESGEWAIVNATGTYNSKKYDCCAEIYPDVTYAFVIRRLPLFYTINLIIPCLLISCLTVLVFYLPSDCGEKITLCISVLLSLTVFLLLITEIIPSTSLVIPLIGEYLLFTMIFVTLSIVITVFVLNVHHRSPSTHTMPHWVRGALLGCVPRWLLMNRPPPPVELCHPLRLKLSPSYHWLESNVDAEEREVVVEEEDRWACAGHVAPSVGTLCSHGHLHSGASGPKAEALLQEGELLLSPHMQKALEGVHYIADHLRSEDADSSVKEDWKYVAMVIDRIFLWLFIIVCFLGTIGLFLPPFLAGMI
UniProt P08219: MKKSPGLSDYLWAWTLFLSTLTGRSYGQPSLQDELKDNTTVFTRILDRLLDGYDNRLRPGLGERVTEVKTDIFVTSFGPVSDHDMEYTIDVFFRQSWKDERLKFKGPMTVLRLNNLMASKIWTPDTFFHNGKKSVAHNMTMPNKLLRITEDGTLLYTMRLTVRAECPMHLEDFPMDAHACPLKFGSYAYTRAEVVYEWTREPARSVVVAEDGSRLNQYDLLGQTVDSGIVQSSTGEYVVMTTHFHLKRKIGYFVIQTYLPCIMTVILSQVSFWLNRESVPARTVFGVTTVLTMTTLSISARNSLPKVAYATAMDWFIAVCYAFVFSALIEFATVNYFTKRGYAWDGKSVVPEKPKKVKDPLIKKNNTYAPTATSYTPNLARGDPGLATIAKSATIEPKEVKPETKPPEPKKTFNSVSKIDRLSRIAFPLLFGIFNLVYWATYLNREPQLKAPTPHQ
UniProt P46098, whole entry, looked up: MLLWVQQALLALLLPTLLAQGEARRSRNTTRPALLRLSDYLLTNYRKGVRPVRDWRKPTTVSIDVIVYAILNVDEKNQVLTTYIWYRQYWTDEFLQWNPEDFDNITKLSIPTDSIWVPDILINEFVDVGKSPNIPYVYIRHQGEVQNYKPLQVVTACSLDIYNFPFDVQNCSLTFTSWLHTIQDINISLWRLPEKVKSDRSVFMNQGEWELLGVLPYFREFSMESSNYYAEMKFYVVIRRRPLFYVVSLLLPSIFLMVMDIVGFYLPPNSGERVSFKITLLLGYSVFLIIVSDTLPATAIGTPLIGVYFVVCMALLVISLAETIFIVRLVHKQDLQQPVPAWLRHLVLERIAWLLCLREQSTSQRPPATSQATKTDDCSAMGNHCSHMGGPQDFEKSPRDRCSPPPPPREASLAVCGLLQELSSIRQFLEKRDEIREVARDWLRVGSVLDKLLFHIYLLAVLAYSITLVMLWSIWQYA
UniProt P21728, whole entry, looked up: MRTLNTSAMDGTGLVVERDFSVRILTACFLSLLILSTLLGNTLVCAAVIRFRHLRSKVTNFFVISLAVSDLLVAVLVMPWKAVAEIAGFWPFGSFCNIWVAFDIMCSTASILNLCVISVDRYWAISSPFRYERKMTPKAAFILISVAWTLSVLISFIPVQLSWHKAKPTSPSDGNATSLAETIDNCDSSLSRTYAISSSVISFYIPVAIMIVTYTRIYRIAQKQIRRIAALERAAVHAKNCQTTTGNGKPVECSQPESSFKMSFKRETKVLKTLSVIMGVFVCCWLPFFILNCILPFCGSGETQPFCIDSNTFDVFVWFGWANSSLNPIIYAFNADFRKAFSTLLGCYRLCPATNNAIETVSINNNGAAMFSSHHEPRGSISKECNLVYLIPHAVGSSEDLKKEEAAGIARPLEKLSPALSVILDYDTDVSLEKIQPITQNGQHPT

Key:
[1] = target: guinea pig Opioid, Kappa 1 Receptor (OpiateK), OPRK1 (gene 100135587) (UniProt P41144); assay: NVS_GPCR_gOpiateK: NovaScreen (NVS) G Protein-Coupled Receptor Assay for guinea pig Opioid, Kappa 1 Receptor (OpiateK) (AID 2283252);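 further: radioligand displacement from kappa opioid receptor in guinea pig cerebellar membranes; active means reduced radioligand binding relative to DMSO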
Summary of the method: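 Guinea pig cerebellar membranes, radioligand displacement with filter-based scintillation counting, 2 h after dosing. Primary screen single concentration 25 uM in duplicate; actives retested in concentration series; loss of binding fitted versus DMSO.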

[2] = target: human Serotonin, 5-Hydroxytryptamine Receptor 7 (5HT7), HTR7 (gene 3363) (UniProt P34969); assay: NVS_GPCR_h5HT7: NovaScreen (NVS) G Protein-Coupled Receptor Assay for human Serotonin, 5-Hydroxytryptamine Receptor 7 (5HT7) (AID 2283255);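 further: hits reduce specific radioligand binding relative to DMSO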
Summary of the method: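 Radioligand displacement on membranes from CHO cells expressing human 5HT7, 1 h incubation, filter-based scintillation counting. Primary screen used a single 25 uM concentration in duplicate; actives were followed up in concentration series.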

[3] = target: human Thromboxane A2 Receptor (TXA2), TBXA2R (gene 6915) (UniProt P21731); assay: NVS_GPCR_hTXA2: NovaScreen (NVS) G Protein-Coupled Receptor Assay for human Thromboxane A2 Receptor (TXA2) (AID 2283282);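 further: actives reduce bound radioligand signal relative to DMSO baseline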
Summary of the method: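 Cell-free radioligand binding with human platelet-derived receptor; 1 h after dosing, filter-based scintillation counting, loss of signal vs DMSO. Primary screen in duplicate at 25 uM.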

[4] = target: rat Neurokinin-3 Receptor (NK3), Tacr3 (gene 24808) (UniProt P16177); assay: NVS_GPCR_rNK3: NovaScreen (NVS) G Protein-Coupled Receptor Assay for rat Neurokinin-3 Receptor (NK3) (AID 2283310)
Summary of the method: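 Rat cortical membranes; radioligand binding with filtration and scintillation counting, 2 h after dosing. Primary screen in duplicate at 25 uM, then concentration-response up to 50 uM; loss of binding signal relative to DMSO.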

[5] = target: human Endothelin Receptor Type B (ETB), EDNRB (gene 1910) (UniProt P24530); assay: NVS_GPCR_hETB: NovaScreen (NVS) G Protein-Coupled Receptor Assay for human Endothelin Receptor Type B (ETB) (AID 2283267)
Summary of the method: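 Human astrocytoma cell membranes; radioligand competitive binding read by filter scintillation counting 4 hours after dosing. Single-concentration duplicate screen at 25 uM, then singleton concentration-response up to 50 uM; loss of signal versus DMSO.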

[6] = target: human Leukotriene B4 Receptor 1 (LTB4-BLT1), LTB4R (gene 1241) (UniProt Q15722); assay: NVS_GPCR_hLTB4_BLT1: NovaScreen (NVS) G Protein-Coupled Receptor Assay for human Leukotriene B4 Receptor 1 (LTB4-BLT1) (AID 2283271)
Summary of the method: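 Radioligand displacement binding on receptor extracted from human neutrophils, cell-free, 1 h after dosing; filter-based scintillation counting. Primary screen in duplicate at 25 uM, actives retested in concentration-response up to 50 uM; loss of signal versus DMSO.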

[7] = target: mouse Cholecystokinin, CCK1 Receptor (CCKA), Cckar (gene 12425) (UniProt O08786); assay: NVS_GPCR_mCCKAPeripheral: NovaScreen (NVS) G Protein-Coupled Receptor Assay for mouse Cholecystokinin, CCK1 Receptor (CCKA) (AID 2283285)
Summary of the method: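 Radioligand competitive displacement on mouse pancreatic membranes, 2 h incubation; filter-based scintillation counting, loss of signal versus DMSO. Single-concentration screen at 25 uM in duplicate, actives retested in concentration-response up to 50 uM.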

[8] = test system: rabbit Platelet Activating Factor Receptor (PAF), gene 100354046; assay: NVS_GPCR_rabPAF: NovaScreen (NVS) G Protein-Coupled Receptor Assay for rabbit Platelet Activating Factor Receptor (PAF) (AID 2283287)
Summary of the method: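 Rabbit platelet membrane preparation; radioligand displacement read by filter-based scintillation counting 1 h after dosing, loss of signal versus DMSO. Primary screen in duplicate at 25 uM, actives followed up in concentration series.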

[9] = target: rat Adrenergic, Alpha 1, Non-selective Receptor (Adra1), Adra1a (gene 29412) (UniProt P43140); assay: NVS_GPCR_rAdra1_NonSelective: NovaScreen (NVS) G Protein-Coupled Receptor Assay for rat Adrenergic, Alpha 1, Non-selective Receptor (Adra1) (AID 2283289)
[10] = target: human Opioid Receptor Mu (Opiate Mu), OPRM1 (gene 4988) (UniProt P35372); assay: NVS_GPCR_hOpiate_mu: NovaScreen (NVS) G Protein-Coupled Receptor Assay for human Opioid Receptor Mu (Opiate Mu) (AID 2283290);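 further: hits lower bound tracer signal versus DMSO meaning displacement of the ligand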
Summary of the method: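 Radioligand displacement binding on membranes from CHO cells expressing the receptor, 2.5 h after dosing, filter-based scintillation counting; loss of signal vs DMSO baseline. Screened in duplicate at 25 uM, actives then run in concentration series.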

[11] = target: guinea pig Serotonin, 5-Hydroxytryptamine Receptor 4 (5HT4), HTR4 (gene 100135548) (UniProt O70528); assay: NVS_GPCR_g5HT4: NovaScreen (NVS) G Protein-Coupled Receptor Assay for guinea pig Serotonin, 5-Hydroxytryptamine Receptor 4 (5HT4) (AID 2283294)
Summary of the method: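 Guinea pig striatal membranes; radioligand competitive displacement, filtration and scintillation counting after 1 h. Primary screen in duplicate at 25 uM; actives then tested in concentration series; loss of binding signal fitted relative to DMSO.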

[12] = target: rat Adrenergic Receptor, Beta (Adrb), Non-selective Binding, Adrb1 (gene 24925) (UniProt P18090); assay: NVS_GPCR_rAdrb_NonSelective: NovaScreen (NVS) G Protein-Coupled Receptor Assay for rat Adrenergic Receptor, Beta (Adrb), Non-selective Binding (AID 2283298)
Summary of the method: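 Non-selective beta-adrenergic radioligand binding in rat cortical membranes, 1 h incubation, filter-based scintillation read-out. Primary screen 25 uM in duplicate; hits retested in concentration-response up to 50 uM, DMSO baseline.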

[13] = target: rat Neurotensin Receptor (NTS), Ntsr1 (gene 366274) (UniProt P20789); assay: NVS_GPCR_rNTS: NovaScreen (NVS) G Protein-Coupled Receptor Assay for rat Neurotensin Receptor (NTS) (AID 2283308)
Summary of the method: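 Rat forebrain membranes; radioligand binding with competitive displacement, read by filter-based scintillation counting 1 h after dosing. Primary screen in duplicate at 25 uM; actives (e.g., 30% inhibition) rerun in concentration-response up to 50 uM, loss-of-signal versus DMSO.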

[14] = target: human Neonicotinoid receptor (NNR), CHRNA2 (gene 1135) (UniProt Q15822); assay: NVS_LGIC_hNNR_NBungSens: NovaScreen (NVS) Ligand-Gated Ion Channel Assay for human Neonicotinoid receptor (NNR) (AID 2283313)
Summary of the method: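 Radioligand displacement on human neuroblastoma membranes, 2 h, filter-based scintillation counting. Primary screen in duplicate at 25 uM; chemicals passing threshold (e.g. 30% inhibition) run singleton concentration-response to 50 uM; loss of binding fitted versus DMSO.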

[15] = NVS_IC_rCaDHPRCh_L: NovaScreen (NVS) Ion Channel Assay for rat Calcium Channel, Type L, Dihydropyridine Site (CaDHPRCh_L) (AID 2283320)
Summary of the method: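 Radioligand binding to dihydropyridine site on rat cortical membranes, filter-based scintillation counting, 1 h after dosing. Screened in duplicate at 25 uM; actives rerun in concentration-response up to 50 uM. Loss of signal versus DMSO baseline.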

[16] = target: bovine Gamma-Aminobutyric Acid Type A Receptor BDZ, alpha 1 site (GABARa1), GABRA1 (gene 780973) (UniProt P08219); assay: NVS_LGIC_bGABARa1: NovaScreen (NVS) Ligand-Gated Ion Channel Assay for bovine Gamma-Aminobutyric Acid Type A Receptor BDZ, alpha 1 site (GABARa1) (AID 2283321)
Summary of the method: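 Radioligand competition binding on bovine cortical membranes, 0.75 h, filter-based scintillation counting. Primary single concentration 25 uM in duplicate; actives rerun in concentration-response to 50 uM max. Loss of signal fitted versus DMSO.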

[17] = target: human Serotonin, 5-Hydroxytryptamine Receptor 3 (5HT3), HTR3A (gene 3359) (UniProt P46098); assay: NVS_LGIC_h5HT3: NovaScreen (NVS) Ligand-Gated Ion Channel Assay for human Serotonin, 5-Hydroxytryptamine Receptor 3 (5HT3) (AID 2283325)
Summary of the method: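 Radioligand displacement binding to human 5-HT3 from HEK293 membranes, read by filter-based scintillation counting after 1 h. Screen at 25 uM in duplicate; chemicals passing threshold were retested in concentration-response up to 50 uM.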

[18] = target: D(1A) dopamine receptor (Homo sapiens) (UniProt P21728); assay: NVS_GPCR_hDRD1: NovaScreen (NVS) G Protein-Coupled Receptor Assay for human Dopamine Receptor D1 (DRD1) (AID 2283269)
Summary of the method: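 Radioligand displacement binding on membranes/protein extracted from HEK293 expressing human D1, cell-free; read 1 h after dosing by filter-based scintillation counting. Primary screen in duplicate at 25 uM, actives followed up in concentration series; signal loss versus DMSO baseline.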

[19] = target: rat Neonicotinoid receptor (NNR), Chrna7 (gene 25302) (UniProt Q05941); assay: NVS_LGIC_rNNR_BungSens: NovaScreen (NVS) Ligand-Gated Ion Channel Assay for rat Neonicotinoid receptor (NNR) (AID 2283315)
Summary of the method: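 Radioligand displacement binding on rat cortical membranes, 2.5 h incubation, filtration and scintillation counting. Loss of specific binding fitted relative to DMSO.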

[20] = target: Sodium channel protein type 1 subunit alpha (Rattus norvegicus) (UniProt P04774); assay: NVS_IC_rNaCh_site2: NovaScreen (NVS) Ion Channel Assay for rat Sodium Channel, Site 2 (NaCh) (AID 2283322);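 further: hit means loss of radioligand binding signal relative to DMSO so AC50 marks displacement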
Summary of the method: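 Membranes: rat forebrain. Format: competitive radioligand displacement, filter separation, scintillation readout, 1 h exposure. Primary screen in duplicate at 25 uM; actives retested in concentration series.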

## CN(C(=O)Cc1cccc2occc12)[C@H]1CC[C@@]2(CCCO2)C[C@@H]1N1CCCC1
[1]
  AC50: active: 3.16 nM
[2]
  outcome: inactive
[3]
  outcome: inactive
[4]
  outcome: inactive

## CC(C)OP(=S)(OC(C)C)SCCNS(=O)(=O)c1ccccc1
[1]
  AC50: active: 3.43 µM and active: 2.16 µM
  outcome: inactive
[5]
  outcome: inactive
[6]
  outcome: inactive
[3]
  outcome: inactive
[7]
  AC50: active: 6.58 µM
  outcome: inactive
[8]
  AC50: active: 1.95 µM and active: 4.12 µM and active: 2.75 µM
[9]
  outcome: inactive
[10]
  outcome: inactive
[11]
  outcome: inactive
[12]
  outcome: inactive
[13]
  outcome: inactive
[14]
  outcome: inactive
[15]
  outcome: inactive
[16]
  AC50: active: 2.16 µM and active: 1.75 µM and active: 3.1 µM
[17]
  outcome: inactive

## O=C1C2CC=CCC2C(=O)N1SC(Cl)(Cl)C(Cl)Cl (stereo not given)
[18]
  AC50: active: 8.83 µM

## O=[N+]([O-])c1ccc([N+](=O)[O-])cc1
[18]
  outcome: inactive

## O=C(Cl)Oc1ccccc1
[19]
  outcome: inactive

## CCCCOP(OCCCC)OCCCC
[20]
  AC50: active: 4.96 µM
